From ChEMBL document CHEMBL2177051

Legend:
Conditions in all cases: Homo sapiens
HEK293 [1] = assay: Inhibition of proteasome beta2 in HEK cell lysates at 1 to 100 uM after 1 hr by MV151 competitive SDS-PAGE analysis
HEK293 [2] = assay: Inhibition of proteasome beta1 in HEK cell lysates at 1 to 100 uM after 1 hr by MV151 competitive SDS-PAGE analysis
HEK293 [3] = assay: Inhibition of proteasome beta5 in HEK cell lysates at 1 to 100 uM after 1 hr by MV151 competitive SDS-PAGE analysis

Measured: inhibition

CC(C)C[C@@H](CS(=O)(=O)F)NC(=O)[C@@H](N)CC(C)C
inactive: all assays above

Activity calls are given as the source filed them.
